# Laboratory results taken from patent publication US6060462A, “Electrophilic peptide analogs as inhibitors of trypsin-like enzymes” (DuPont Pharmaceuticals Company, priority 1997, dated 2000).
# Amino acid sequences for entries named in this document (tags omitted). Residues count along the entry.
# UniProt P00742, 235-488 limits assumed: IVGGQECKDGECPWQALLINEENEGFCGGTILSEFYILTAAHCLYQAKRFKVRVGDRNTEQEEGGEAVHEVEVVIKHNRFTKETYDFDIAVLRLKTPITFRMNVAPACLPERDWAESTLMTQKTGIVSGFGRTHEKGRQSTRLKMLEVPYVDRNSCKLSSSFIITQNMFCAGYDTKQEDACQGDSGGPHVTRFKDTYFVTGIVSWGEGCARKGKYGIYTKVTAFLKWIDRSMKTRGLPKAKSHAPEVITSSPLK
# UniProt P00742, 41-179 partner limits assumed: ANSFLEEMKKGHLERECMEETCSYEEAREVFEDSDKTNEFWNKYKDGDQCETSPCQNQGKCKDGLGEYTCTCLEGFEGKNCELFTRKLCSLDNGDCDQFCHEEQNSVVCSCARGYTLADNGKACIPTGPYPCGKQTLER
# UniProt P08709, 213-466 limits assumed: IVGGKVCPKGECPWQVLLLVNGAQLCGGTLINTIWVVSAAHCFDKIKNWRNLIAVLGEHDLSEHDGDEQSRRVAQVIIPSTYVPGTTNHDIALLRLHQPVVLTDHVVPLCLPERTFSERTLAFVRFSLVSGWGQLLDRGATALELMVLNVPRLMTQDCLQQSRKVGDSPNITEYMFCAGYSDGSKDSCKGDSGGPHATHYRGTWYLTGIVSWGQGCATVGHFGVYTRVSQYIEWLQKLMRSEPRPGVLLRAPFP
# UniProt P08709, 61-212 partner limits assumed: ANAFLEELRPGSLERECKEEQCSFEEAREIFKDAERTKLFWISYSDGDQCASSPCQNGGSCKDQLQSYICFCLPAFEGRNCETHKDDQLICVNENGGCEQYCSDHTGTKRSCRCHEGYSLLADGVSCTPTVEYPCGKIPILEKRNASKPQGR
# Legend:
# human thrombin = human thrombin (Homo sapiens, UniProt P00734); assay: Inhibition of thrombin hydrolysis of chromogenic substrate S2238 (Ki); conditions: read-out: Ki values for inhibition of Serine Proteases: Trombin, purified human thrombin, 0.10 M sodium phosphate buffer, pH 7.5
# human factor Xa = human factor Xa (Homo sapiens, UniProt P00742); assay: Inhibition of Factor Xa hydrolysis of chromogenic substrate S2222 (Ki)
# human factor VIIa = human factor VIIa (Homo sapiens, UniProt P08709); assay: Inhibition of Factor VIIa hydrolysis of chromogenic substrate S2288 (Ki); conditions: purified human factor VIIa, 0.05 M tris buffer, pH 7.6
Structure (SMILES),Ki (human thrombin) [µM],"Ki (human factor Xa; read-out: Ki values for inhibition of Serine Proteases: Factor Xa, purified human factor Xa, 0.10 M sodium phosphate buffer, pH 7.5) [µM]",Ki values for inhibition of Serine Proteases: Factor VIIa (human factor VIIa),"Ki values for inhibition of Serine Proteases: Factor Xa (human factor Xa; purified human factor Xa, 0.10 M sodium phosphate buffer, pH 7.5)"
CN(CC(=O)NC(CCCCNC(=O)OCc1ccccc1)C(=O)O)C(=O)CCc1ccccc1 (stereo not drawn),< 50,< 50,inactive,–
"COC(=O)C(CCCCN)NC(=O)CN(C)C(=O)CCc1ccccc1 (single isomer, unassigned)",< 50,–,Inactive,Inactive
